The values below come from ChEMBL document CHEMBL1140936, “Topological polar surface area defines substrate transport by multidrug resistance associated protein 1 (MRP1/ABCC1)” (J Med Chem, 2009).

Chains of the proteins cited; added tags and fusions are not shown. Lines headed by an entry give the natural chain unless they say otherwise; changes in a name come on top.
UniProt P33527: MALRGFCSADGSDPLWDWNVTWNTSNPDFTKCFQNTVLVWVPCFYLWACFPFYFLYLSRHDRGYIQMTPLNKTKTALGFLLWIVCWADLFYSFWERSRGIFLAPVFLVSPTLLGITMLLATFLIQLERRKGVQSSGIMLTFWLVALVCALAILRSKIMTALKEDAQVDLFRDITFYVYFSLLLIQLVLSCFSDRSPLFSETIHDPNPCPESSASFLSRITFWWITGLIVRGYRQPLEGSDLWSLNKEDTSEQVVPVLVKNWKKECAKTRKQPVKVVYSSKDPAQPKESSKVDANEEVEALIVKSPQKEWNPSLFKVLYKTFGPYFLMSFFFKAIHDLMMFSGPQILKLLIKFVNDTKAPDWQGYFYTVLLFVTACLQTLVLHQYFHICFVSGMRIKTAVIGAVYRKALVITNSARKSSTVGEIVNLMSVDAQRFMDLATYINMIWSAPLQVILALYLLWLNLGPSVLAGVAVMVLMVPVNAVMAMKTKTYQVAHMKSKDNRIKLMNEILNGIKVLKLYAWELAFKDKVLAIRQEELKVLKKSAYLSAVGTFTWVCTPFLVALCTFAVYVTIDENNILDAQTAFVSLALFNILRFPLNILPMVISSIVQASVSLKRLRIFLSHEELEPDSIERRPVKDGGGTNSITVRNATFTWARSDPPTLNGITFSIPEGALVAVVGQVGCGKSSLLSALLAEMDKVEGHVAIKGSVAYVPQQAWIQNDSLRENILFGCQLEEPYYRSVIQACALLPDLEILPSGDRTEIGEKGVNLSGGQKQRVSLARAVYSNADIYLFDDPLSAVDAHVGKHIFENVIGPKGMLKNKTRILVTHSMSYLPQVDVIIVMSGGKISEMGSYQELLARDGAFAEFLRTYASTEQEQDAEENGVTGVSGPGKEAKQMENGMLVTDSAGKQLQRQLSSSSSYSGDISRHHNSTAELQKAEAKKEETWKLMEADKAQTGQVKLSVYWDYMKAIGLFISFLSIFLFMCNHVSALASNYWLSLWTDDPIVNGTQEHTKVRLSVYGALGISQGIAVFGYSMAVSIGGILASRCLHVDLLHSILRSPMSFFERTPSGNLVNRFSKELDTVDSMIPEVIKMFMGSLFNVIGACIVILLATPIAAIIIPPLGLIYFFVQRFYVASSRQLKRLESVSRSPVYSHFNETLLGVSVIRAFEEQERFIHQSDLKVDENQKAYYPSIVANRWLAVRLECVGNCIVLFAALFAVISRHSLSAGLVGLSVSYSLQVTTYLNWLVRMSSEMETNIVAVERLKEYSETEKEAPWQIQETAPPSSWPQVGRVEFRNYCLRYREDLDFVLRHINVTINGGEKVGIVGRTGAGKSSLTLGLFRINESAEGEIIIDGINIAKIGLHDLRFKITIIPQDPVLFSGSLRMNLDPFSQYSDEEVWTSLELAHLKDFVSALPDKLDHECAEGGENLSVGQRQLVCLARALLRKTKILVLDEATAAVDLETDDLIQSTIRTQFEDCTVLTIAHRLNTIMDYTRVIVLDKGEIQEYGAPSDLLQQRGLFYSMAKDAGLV

For the assay, the target named is Multidrug resistance-associated protein 1 (Homo sapiens, UniProt P33527). In words: Activity of MRP1.

As a reminder, the Km is the concentration of substrate that gives half-maximal velocity. On to `N[C@@H](CCC(=O)N[C@@H](CS[As](SC[C@H](NC(=O)CC[C@H](N)C(=O)O)C(=O)NCC(=O)O)SC[C@H](NC(=O)CC[C@H](N)C(=O)O)C(=O)NCC(=O)O)C(=O)NCC(=O)O)C(=O)O`, for which the Km stood at 0.32 µM.
